# Source: patent US20230241188A1 (priority 2020, published 2023)
# What was measured:
# [1] = molecular target: SARS-CoV-2 (2019-nCoV) Spike S1+S2 ECD-His Recombinant Protein (Severe acute respiratory syndrome coronavirus 2, UniProt P0DTC2); assay type: biochemical
smiles,measurement,setting,value
"CC(=O)N[C@@H](CS)C(=O)O [Acetylcysteine, acetylcysteine]",spike protein band on SDS-PAGE gel,[1],reduction in band thickness and intensity
same,protein expression of NRP-1 receptor (western blot),NRP-1 receptor,do not
same,protein expression of ACE-2 receptor (western blot),ACE-2 receptor,do not
